{"sequences": {"note": "Amino acid sequences for entries named in this document (tags omitted). A change or cut given only in a name is not applied to a line headed by its entry.", "UniProt P42338": "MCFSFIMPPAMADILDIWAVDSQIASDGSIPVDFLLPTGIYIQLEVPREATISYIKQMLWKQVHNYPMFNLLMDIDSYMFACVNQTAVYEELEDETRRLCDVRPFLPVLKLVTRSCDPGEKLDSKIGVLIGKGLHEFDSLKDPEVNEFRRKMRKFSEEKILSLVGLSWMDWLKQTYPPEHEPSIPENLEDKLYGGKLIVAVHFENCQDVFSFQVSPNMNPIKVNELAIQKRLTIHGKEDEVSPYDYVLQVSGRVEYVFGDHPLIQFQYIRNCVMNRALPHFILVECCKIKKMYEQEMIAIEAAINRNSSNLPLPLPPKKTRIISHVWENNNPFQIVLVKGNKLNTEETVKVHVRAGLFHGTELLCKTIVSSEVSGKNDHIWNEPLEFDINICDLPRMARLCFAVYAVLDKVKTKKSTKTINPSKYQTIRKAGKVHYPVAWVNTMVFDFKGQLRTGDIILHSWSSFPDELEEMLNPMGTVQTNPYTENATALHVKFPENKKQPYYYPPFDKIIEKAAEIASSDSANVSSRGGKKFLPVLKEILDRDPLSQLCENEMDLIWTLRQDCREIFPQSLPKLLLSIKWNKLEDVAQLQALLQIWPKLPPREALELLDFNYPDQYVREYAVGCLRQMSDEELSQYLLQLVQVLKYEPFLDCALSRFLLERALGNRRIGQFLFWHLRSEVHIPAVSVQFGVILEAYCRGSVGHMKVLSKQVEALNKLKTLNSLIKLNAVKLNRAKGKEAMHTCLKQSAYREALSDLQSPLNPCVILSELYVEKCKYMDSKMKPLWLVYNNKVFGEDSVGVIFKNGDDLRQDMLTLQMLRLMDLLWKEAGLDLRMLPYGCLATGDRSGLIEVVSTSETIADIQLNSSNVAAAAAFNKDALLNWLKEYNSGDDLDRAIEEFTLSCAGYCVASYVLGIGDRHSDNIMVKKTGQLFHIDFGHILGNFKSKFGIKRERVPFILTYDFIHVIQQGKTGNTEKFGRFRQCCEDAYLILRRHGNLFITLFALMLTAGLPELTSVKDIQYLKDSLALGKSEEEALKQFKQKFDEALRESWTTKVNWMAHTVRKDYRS"}, "source": "patent US9718800B2", "about": "“Chromenone derivatives” (AstraZeneca AB, priority 2009, dated 2017)", "target": "PI3Kβ (Homo sapiens (Human), UniProt P42338)", "assay": "In vitro enzyme inhibition assay (Kinase Glo based enzyme activity assay)", "type": "biochemical", "details": "(+) enantiomer of Example 3.06 versus the other enantiomer; assay not specified", "method": "(a) In Vitro Enzyme Inhibition Assay\nThe inhibition of PI3Kβ, PI3Kα, PI3Kγ and PI3Kδ was evaluated in a Kinase Glo based enzyme activity assay using human recombinant enzymes. The assay measures depletion of ATP after incubation with enzyme, PIP2 and ATP plus compound. ATP at the end of the reaction is detected by addition of Kinase Glo reagent, in this the Ultra Glo™ luciferase (Promega) uses the ATP as a substrate to catalyze the mono-oxygenation of luciferin and the generation of light. A direct relationship exists between the luminescence measured with the Kinase-Glo Plus Reagent and the amount of ATP remaining in a completed kinase reaction and luminescence is inversely related to kinase activity.\nCompounds in 100% DMSO were added to assay plates by acoustic dispensing. PI3Kβ was added in a Tris buffer (50 mM Tris pH7.4, 0.05% CHAPS, 2.1 mM DTT, and 10 mM MgCl2) and allowed to preincubate with compound for 20 minutes prior to addition of substrate solution containing PIP2 and ATP. The enzyme reaction was stopped after 80 minutes by the addition of Kinase Glo detection solution. Plates were left for 30 minutes at room temperature then read on a Pherastar Instrument (Luminescence ATP 384 program) setting gain on max well. […]\nIC50 values were calculated using a log curve fitting to a non-linear regression package, fitting raw data to inhibitor concentration.", "data": [{"smiles": "CC(Nc1cc(F)cc(F)c1)c1cc(C(=O)N(C)C)cc2c(=O)cc(N3CCOCC3)oc12", "note": "(stereo not shown) [Example 3.06a, 8-(1-(3,5-difluorophenylamino)ethyl)-N,N-dimethyl-2-morpholino-4-oxo-4H-chromene-6-carboxamide]", "values": [{"measurement": "activity of the enantiomer relative to the other enantiomer", "value": "weaker activity"}]}]}
